The subject of this test is A431 tumor xenograft. As to the kind of experiment: In vivo Raman imaging of EGFR-targeted SERRS-nanoprobes. The note with it: A431 xenograft nude mice, 15 fmol/g per probe i.v., 18 hours, imaged in situ. The protocol: In vivo comparison of EGFR-targeted CP-3- or IR792-SERRS-nanoprobes. The ability of our SERRS-nanoprobe to delineate tumor tissue in vivo was assessed by utilizing CP dye 3 and IR792-based SERRS-nanoprobes functionalized with an epidermal growth factor receptor (EGFR)-targeting antibody. Equimolar amounts (15 fmol/g) of these two EGFR-targeted nanoprobes were injected intravenously into athymic nude mice which had been inoculated two weeks prior with the EGFR-overexpressing cell line A431 (1×10^6 cells). After 18 hours, the skin around the tumor was carefully peeled back and multiplexed Raman imaging the tumor site and surrounding tissue was performed (FIG. 20-21). A Raman map was generated and the signals from the multiplexed SERRS-Nanoprobes were deconvoluted by applying a direct classical least square algorithm (DCLS). The SERRS-signal from both nanoprobes was more intense for the tumor site than for the surrounding tissue, showing that the EGFR-targeted SERRS-nanoprobes had selectively localized at the tumor site. […] In addition, to validate EGFR targeting, we injected A431-tumor bearing mice with cetuximab (50 pmol/g) 3 hours prior to injection with the EGFR-targeted SERRS-nanoprobes.
In vivo comparison of EGFR-targeted CP-3- or IR792-SERRS-nanoprobes. Female athymic nude mice (n=5) were inoculated with the EGFR-overexpressing cell line A431 (1×10^6 cells). […]

“EGFR-targeted IR792-based SERRS-nanoprobe: IR792-based silica-gold SERRS-nanoprobe conjugated to EGFR-targeting antibody cetuximab through a 4000 Da PEG linker [reference compound]”: the “SERRS signal at the tumor” value is recorded as 7.313 cps/cm^2.
